The values that follow are results of earlier work, collected in PMC9781609, “PET Imaging of the Neurotensin Targeting Peptide NOTA-NT-20.3 Using Cobalt-55, Copper-64 and Gallium-68” (Pharmaceutics, 2022).

The chains behind the UniProt entries cited, without tags or fusion partners.
UniProt P30989, whole entry: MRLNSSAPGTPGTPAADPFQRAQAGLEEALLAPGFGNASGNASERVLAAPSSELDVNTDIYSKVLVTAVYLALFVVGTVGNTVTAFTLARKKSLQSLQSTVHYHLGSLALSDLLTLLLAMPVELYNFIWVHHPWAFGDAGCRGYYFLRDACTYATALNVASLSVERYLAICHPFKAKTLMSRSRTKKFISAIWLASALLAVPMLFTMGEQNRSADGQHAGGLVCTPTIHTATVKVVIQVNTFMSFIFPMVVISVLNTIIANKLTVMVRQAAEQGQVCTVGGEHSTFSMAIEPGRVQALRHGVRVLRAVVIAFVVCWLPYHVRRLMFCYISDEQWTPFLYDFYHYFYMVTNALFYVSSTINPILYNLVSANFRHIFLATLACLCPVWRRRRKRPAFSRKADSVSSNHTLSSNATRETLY

The conditions of series [1]: cited from earlier work. How it is done:
(§1) Neurotensin receptor imaging has emerged as a promising target for imaging and therapy. The endogenous neurotensin peptide has a short half-life in blood (<6 min), limiting its direct radiolabeling and use. Most developments in neurotensin receptor imaging have been focused on increasing serum stability and improving specificity for NTSR1 [1]. Previously, neurotensin receptor binding peptides have been investigated as imaging and therapeutic agents when radiolabeled with technetium-99m, indium-111, gallium-68, copper-64, actinium-225, and leutetium-177 [10, 11, 12, 13]. Specif ...

The target of a further series is NTSR1 (Homo sapiens, UniProt P30989). The following applies: cited from earlier work. How it is done: as §1

For orientation: IC50 means the midpoint of a concentration-inhibition curve. As to `CC(=O)N[C@@H](CCCCN)C(=O)N1CCC[C@H]1C(=O)N(C)[C@@H](CCCNC(=N)N)C(=O)N[C@@H](CCCNC(=N)N)C(=O)N1CCC[C@H]1C(=O)N[C@@H](Cc1ccc(O)cc1)C(=O)N[C@H](C(=O)N[C@@H](CC(C)C)C(=O)O)C(C)(C)C`, the serum stability in series [1] is given as > 250 h. Also, at NTSR1, the IC50 was 2.2 nM.
